{"source": "patent US9700578B2", "about": "“Use of nitrite salts for the treatment of cardiovascular conditions” (The United States of America as represented by the …, priority 2003, dated 2017)", "key": {"[1]": {"system": "hypoxic-induced pulmonary hypertension"}, "[2]": {"system": "U46619-induced normoxic pulmonary hypertension"}}, "data": [{"compound": "O=NO", "note": "[sodium nitrite]", "values": [{"measurement": "reduction of pulmonary artery resistance", "setting": "[1]; FiO2 0.12, nebulized nitrite", "value": "~70", "unit": "%"}, {"measurement": "effect on mean arterial blood pressure or systemic vascular resistance", "setting": "[1]; hypoxia, versus control animals", "value": "no measurable effect"}, {"measurement": "effect on mean arterial blood pressure or systemic vascular resistance", "setting": "[2]", "value": "no effect"}]}]}
